The subject of test [1] is K18 R90C mice. To be noted: males, PP2 1 mg/kg ip 3 h after APAP, vs vehicle controls.
The subject of test [2] is A549 cells. To be noted: 5 μM, 48 h. The method, then: A549 cells were cultured using Ham's F-12K medium (Thermo Fisher Scientific) supplemented with 10% fetal bovine serum (Sigma Aldrich) and 1% penicillin and 10,000 U/mL streptomycin (Life Technologies).

With `CC(C)(C)n1nc(-c2ccc(Cl)cc2)c2c(N)ncnc21` [PP2, 1-tert-butyl-3-(4-chlorophenyl)-1H-pyrazolo[3,4-d]pyrimidin-4-amine], in test [1], the “caspase 7 activation” value was “significant reduction”. Besides, the “growth of A549 cells” value in test [2] is reported as “appears to inhibit the growth”.

The values are drawn from patent US20250387404A1, “FORMULATIONS AND METHODS FOR TREATING EPIDERMOLYSIS BULLOSA SIMPLEX AND RELATED CONDITIONS” (RUTGERS, THE STATE UNIVERSITY OF NEW JERSEY, priority 2022, published 2025).
